Reference: publication PMC4459640 (European journal of pharmaceutical sciences : official …, 2014)

Test system: buprenorphine
Assay: not read
Settings: other: Michaelis-Menten, pH 7.5

## human SULT2A1 (Homo sapiens)
  Km: 169.9 ± 12.62 µM
  Vmax: 0.00723 µmol/min/mg
